Consider one compound from patent publication US20150258139A1, “METHODS FOR TREATMENT OF CANCER USING LIPOPLATIN” (REGULON, INC., priority 2012, published 2015).

Data set [1] deals with F98 glioma tumor. As to conditions: rat, in vivo.
Data set [2] deals with metastatic colorectal cancer. As to conditions: cited from earlier work; for severe neurotoxicity, % of patients: 130 mg/m2 once every 3 weeks.

Molecules are shown by their SMILES. Like-named read-outs stand apart in the source and are kept apart here.

As to `O=C1[O][Pt]2([NH][C@@H]3CCCC[C@H]3[NH]2)[O]C1=O` [Oxaliplatin], the “toxicity observed in animals” value in data set [1] is reported as “too toxic for the animals”. For the same compound, the “severe neurotoxicity, % of patients” value in data set [2] (after 6 treatment cycles) was 10%; in data set [2] (after 9 cycles), 50%. Also, the toxicities result in data set [2] (monotherapy, second line, Japanese study, notably neuropathy) is on record as “Grade 3 toxicities”.
